Results from patent US11001561B2, “Pyrimidinone derivatives as SHP2 antagonists” (MERCK PATENT GMBH, priority 2019, dated 2021).

The chains behind the UniProt entries cited, without tags or fusion partners. Where a name states a change or a piece, a line headed by the entry shows the natural chain unless it says otherwise.
UniProt Q12809: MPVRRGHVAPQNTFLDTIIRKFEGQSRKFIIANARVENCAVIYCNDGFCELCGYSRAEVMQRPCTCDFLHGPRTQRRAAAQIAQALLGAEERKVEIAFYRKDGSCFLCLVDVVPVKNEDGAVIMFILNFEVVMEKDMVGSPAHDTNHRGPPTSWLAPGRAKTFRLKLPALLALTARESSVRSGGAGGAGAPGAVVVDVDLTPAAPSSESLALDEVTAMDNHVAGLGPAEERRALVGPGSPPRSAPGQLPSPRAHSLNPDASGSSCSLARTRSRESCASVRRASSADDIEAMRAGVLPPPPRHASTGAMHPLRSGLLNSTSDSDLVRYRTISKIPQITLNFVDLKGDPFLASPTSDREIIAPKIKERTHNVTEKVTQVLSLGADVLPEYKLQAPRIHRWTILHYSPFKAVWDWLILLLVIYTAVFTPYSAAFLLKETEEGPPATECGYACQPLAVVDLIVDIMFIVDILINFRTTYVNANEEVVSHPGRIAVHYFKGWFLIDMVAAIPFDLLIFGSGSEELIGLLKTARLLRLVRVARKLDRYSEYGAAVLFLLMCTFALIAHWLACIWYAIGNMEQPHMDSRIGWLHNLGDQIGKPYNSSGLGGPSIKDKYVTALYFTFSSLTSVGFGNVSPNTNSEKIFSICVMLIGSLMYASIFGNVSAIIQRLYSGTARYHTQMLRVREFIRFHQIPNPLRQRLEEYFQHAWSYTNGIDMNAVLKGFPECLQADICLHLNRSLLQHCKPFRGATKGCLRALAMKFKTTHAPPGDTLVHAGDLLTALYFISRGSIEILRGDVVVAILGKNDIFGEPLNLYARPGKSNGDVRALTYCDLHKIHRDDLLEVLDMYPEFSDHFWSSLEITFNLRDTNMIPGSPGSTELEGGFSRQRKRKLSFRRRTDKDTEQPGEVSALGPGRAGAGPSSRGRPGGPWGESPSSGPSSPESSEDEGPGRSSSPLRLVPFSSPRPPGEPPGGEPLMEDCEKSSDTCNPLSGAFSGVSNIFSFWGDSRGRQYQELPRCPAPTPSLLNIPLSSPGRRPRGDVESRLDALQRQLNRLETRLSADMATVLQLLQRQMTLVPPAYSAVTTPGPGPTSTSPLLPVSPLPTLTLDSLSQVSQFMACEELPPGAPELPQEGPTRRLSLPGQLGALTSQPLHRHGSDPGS

Key:
[1] = Pharmacokinetics in mouse (oral / intravenous); format: in vivo; conditions: female CD1 mice
Method: Female CD1 mice (N=3) received a single oral (gavage) or a single intravenous (bolus) injection of compound. […] Consecutive blood samples were taken sub-lingually under isofluorane inhalation from animals after 0.083 (IV), 0.25, 0.5, 1, 2, 4, 6 and 24 h and were further processed to obtain plasma. Samples were protein precipitated and analysed by LC/MS/MS.

[2] = target: Recombinant human SHP2 protein (2-593) (Homo sapiens (Human), UniProt Q06124); experiment: SPR binding assay
Method: The immobilization buffer contained 20 mM HEPES/NaOH (pH 7.4), 150 mM NaCl, 0.05% Tween 20. Inhibitors (stored as 10 mM stock solutions in 100% DMSO) were diluted in running buffer (20 mM HEPES/NaOH pH 7.4, 150 mM NaCl, 1 mM DTT, 5 mM MgCl2 0.1 mM EGTA, 0.05% Tween 20, 2% DMSO @25° C.) and analysed with a Biacore 4000 (Biacore AB, GE Healthcare Life Sciences, Uppsala, Sweden) using a 2-fold dilution series. The highest compound concentration varied according to the expected dissociation constant, but all compounds were tested at 10 different concentrations. Interaction analysis cycles were run at 30 μL/min and consisted of a 140 s sample injection followed by 600 s of buffer flow (dissociation phase). All sensograms were evaluated by first subtracting the binding response recorded from the control surface (reference spot), followed by subtracting a buffer blank injection. To determine kinetic rate constants, data sets were fitted to a simple 1:1 interaction model including a term for mass transport using numerical integration and nonlinear curve fitting. Equilibrium analysis was performed by fitting the response at the end of the association phase to a single-site binding isotherm.

[3] = target: Kv11.1 (hERG) ion channel (Homo sapiens (Human), UniProt Q12809); experiment: hERG patch clamp in Kv11.1 transfected HEK293 cells; format: cell-based; conditions: ratio hErg Ki / KYSE520 pERK IC50
Method: Inhibition of the ion channel hErg (or Kv11.1) current causes QT interval prolongation resulting in potentially fatal ventricular tachyarrhythmia called Torsade de Pointes.
hERG ion channel activity was assessed using a patch clamp technique in stable Kv11.1 (hERG) transfected human embryonic kidney cell line (HEK293). Whole cell recordings were carried out with an automated patch clamp device Patchliner™ from Nanion Technologies, Munich following manufacturer recommendation. Different concentrations of the test compound or reference, quinidine, were applied to whole cells suspension and current was measured using a pulse pattern with fixed amplitudes.

Compound | Fz [1] [%] | kon [1/MS] ([2]; SPR, 25° C.) | residence time ([2]; read-out: Residence time [min]) [min] | koff ([2]; read-out: koff [1/s]) [s⁻¹] | Split between hErg and cell activity Ki (patch Clamp)/IC50 (KYSE) [3]
CC1(N)CCN(c2cnc(-c3cccc(Cl)c3Cl)c(N)n2)CC1 [SHP-099, reference compound] | 74 |  |  |  | 
Cc1c(N2CCC3(CC2)CO[C@@H](C)[C@H]3N)nc(C)n(-c2cccc(Cl)c2Cl)c1=O (single isomer, unassigned) [Compound 23b] |  | 249000 1/MS | 9.3 | 0.0018 | 136
